Test system: 3H-5-HT uptake into whole rat brain synaptosomes
Test: Inhibition of 3H-5-HT uptake into rat brain synaptosomes
Format: biochemical
Conditions: 3H-5-HT accumulation into whole rat brain synaptosomes, in vitro; read-out: Inhibition of serotonin reuptake IC50
Method: Inhibition of ^3H-5-HT Uptake Into Rat Brain Synaptosomes
Using this method the ability of drugs to inhibit the accumulation of ^3H-5-HT into whole rat brain synaptosomes is determined in vitro.

SMILES: Fc1ccc([C@@H]2CCNC[C@H]2COc2ccc3c(c2)OCO3)cc1 [Paroxetine, reference compound]
- IC50: 0.29 nM

— patent publication US6727263B2, “Indole and 2,3-dihydroindole derivatives, their preparation and use” (H. Lundbeck A/S, priority 1997, dated 2004)
